From patent US20120115869A1, “TETRAZOLE DERIVATIVES” (MERCK SERONO S.A., priority 2009, published 2012) come the findings set out here.

This assay has as its target T1, CRTH2 (DP2) (Homo sapiens, UniProt Q9Y5Y4).
T1 construct: host or cells: CHO cells
T1 sequence (Q9Y5Y4 1-395): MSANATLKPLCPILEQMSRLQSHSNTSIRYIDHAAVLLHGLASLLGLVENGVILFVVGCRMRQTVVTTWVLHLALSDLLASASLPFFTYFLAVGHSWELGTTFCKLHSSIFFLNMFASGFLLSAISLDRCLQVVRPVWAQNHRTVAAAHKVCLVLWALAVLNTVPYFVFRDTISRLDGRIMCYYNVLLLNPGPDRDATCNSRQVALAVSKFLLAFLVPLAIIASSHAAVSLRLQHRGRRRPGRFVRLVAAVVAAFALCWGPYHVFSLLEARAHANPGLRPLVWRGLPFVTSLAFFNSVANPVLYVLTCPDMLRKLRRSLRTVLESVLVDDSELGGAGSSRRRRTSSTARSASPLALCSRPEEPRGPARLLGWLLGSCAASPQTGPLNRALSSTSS
Put plainly: Radioligand binding Scintillation Proximity Assay ([3H]PGD2, hCRTH2-CHO cell membranes). The following applies: 1.5 nM [3H]PGD2, hCRTH2-CHO cell membranes, SPA. The method, then:
Adherent CHO cells expressing hCRTH2 (Euroscreen, Belgium) were cultured in 225 cm^2 cell culture flasks (Corning, USA) in 30 ml of medium. After two rinses of phosphate buffered saline (PBS), cells were harvested in 10 ml of PBS containing 1 mM EDTA, centrifuged at 500×g for 5 min at 4° C. and frozen at −80° C. The pellet was re-suspended in 50 mM Tris-HCl, pH 7.4, 2 mM EDTA, 250 mM Sucrose, containing protease inhibitor cocktail tablets, (Complete EDTA-free, Roche, Germany) and incubated 30 min at 4° C. Cells were disrupted by nitrogen cavitation (Parr Instruments, USA) at 4° C. (800 p.s.i. for 30 min), and centrifuged at 500×g for 10 min at 4° C. Pellet containing nuclei and cellular debris was discarded and supernatant was centrifuged 60 min at 4° C. at 45000×g. Membrane pellet was re-suspended in storage buffer (10 mM HEPES/KOH pH 7.4, 1 mM EDTA, 250 mM sucrose, protease inhibitor cocktail tablets) using Dounce homogenization and frozen in liquid nitrogen, and stored at 80° C.
Non-specific binding was determined in the presence of 10 μM PGD2 (Cayman, USA). Competing Compounds of Formula (I) were diluted in dimethylsulphoxide so that the total volume of dimethylsulfoxide was kept constant at 1% dimethylsulphoxide (Me2SO). […]

`CCC(=O)N(Cc1cccc(O)c1)c1cc(F)cc(-c2nnn[nH]2)c1` [Example 84, N-[3-fluoro-5-(1H-tetrazol-5-yl)phenyl]-N-(3-hydroxybenzyl)propanamide] came in with an IC50 of 28 nM.
